Only a part is listed here, and it is no random draw. Inconclusive results are not listed. The source made the active and inactive calls. Unless noted, the call rests on the fitted dose curve; in most records, active means well fitted curve in the direction sought with a large enough effect; inconclusive means small, poorly fitted or top-dose-only effect, or another doubt; inactive means no such curve, though single readings can be large; an effect the other way counts as inactive or inconclusive.
Assays:
[1] = target: T1, Tyrosine-protein phosphatase non-receptor type substrate 1 (Homo sapiens) + Leukocyte surface antigen CD47 (Homo sapiens) (UniProt P78324+Q08722); assay: CD47-SIRPalpha protein protein interaction - LANCE assay qHTS validation (AID 1347057; active means well fitted curve in the direction sought with a large enough effect in the signal ratio, with a control signal flat, not every such curve was filed as active; the % refers to the signal ratio; further: 0% is about no effect); details: Recombinant CD47-His / biotin-SIRPalpha, TR-FRET ratio; at 38.3 µM (top of the series)
Outline: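 First, His-tagged CD47 and Eu-labelled anti-His antibody met the compound for 30 min; next, site-specifically biotinylated SIRPalpha was added for 30 min; finally streptavidin-APC was added before reading the TR-FRET ratio.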

Sequences of proteins named here, by UniProt entry; tags and fusion partners are left off. A change or cut given only in a name is not applied to a line headed by its entry.
UniProt P78324, whole entry, looked up: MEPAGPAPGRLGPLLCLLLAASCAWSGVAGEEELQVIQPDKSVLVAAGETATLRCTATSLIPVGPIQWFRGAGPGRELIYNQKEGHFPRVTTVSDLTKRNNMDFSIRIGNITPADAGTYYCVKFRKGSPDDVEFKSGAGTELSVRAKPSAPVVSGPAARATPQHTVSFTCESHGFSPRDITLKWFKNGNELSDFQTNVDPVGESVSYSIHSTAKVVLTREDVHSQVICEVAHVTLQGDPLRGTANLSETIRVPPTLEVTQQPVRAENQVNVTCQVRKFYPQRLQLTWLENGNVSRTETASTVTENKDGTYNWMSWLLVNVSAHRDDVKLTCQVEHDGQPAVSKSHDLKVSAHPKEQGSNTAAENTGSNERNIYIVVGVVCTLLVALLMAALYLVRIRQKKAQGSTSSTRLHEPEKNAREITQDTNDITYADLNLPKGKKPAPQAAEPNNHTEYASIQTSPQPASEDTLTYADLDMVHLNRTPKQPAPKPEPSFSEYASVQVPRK
UniProt Q08722, whole entry, looked up: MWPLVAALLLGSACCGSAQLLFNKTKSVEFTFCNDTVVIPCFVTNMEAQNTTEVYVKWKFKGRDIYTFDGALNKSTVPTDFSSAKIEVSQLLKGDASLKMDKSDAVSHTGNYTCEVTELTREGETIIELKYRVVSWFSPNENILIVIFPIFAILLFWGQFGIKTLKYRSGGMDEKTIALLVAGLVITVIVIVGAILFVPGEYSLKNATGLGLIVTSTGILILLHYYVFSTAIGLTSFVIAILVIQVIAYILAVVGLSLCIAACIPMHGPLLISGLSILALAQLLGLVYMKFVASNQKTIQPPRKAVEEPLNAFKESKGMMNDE
UniProt Q03431: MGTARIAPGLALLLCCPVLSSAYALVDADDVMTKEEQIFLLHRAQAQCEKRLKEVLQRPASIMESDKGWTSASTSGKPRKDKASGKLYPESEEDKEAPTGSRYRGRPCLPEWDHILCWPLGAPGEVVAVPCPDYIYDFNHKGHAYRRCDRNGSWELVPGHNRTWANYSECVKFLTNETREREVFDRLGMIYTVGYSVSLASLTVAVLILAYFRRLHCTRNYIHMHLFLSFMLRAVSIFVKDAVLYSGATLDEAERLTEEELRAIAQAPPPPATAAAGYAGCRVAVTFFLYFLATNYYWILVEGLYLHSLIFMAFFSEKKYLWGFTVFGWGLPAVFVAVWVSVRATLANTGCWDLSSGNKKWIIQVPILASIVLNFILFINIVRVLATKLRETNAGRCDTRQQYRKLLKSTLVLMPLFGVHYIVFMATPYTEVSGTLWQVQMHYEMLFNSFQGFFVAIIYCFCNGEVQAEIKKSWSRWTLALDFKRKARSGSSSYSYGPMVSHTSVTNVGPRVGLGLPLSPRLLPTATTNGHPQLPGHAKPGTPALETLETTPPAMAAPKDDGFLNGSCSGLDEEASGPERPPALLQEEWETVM
UniProt Q9BV86: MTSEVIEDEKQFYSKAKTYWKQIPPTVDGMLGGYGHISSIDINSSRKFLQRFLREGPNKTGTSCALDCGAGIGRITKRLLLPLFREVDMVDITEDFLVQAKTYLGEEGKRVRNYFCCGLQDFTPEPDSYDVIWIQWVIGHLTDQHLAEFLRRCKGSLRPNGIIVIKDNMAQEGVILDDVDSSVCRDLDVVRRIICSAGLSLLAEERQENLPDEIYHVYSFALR
UniProt Q9UGL1: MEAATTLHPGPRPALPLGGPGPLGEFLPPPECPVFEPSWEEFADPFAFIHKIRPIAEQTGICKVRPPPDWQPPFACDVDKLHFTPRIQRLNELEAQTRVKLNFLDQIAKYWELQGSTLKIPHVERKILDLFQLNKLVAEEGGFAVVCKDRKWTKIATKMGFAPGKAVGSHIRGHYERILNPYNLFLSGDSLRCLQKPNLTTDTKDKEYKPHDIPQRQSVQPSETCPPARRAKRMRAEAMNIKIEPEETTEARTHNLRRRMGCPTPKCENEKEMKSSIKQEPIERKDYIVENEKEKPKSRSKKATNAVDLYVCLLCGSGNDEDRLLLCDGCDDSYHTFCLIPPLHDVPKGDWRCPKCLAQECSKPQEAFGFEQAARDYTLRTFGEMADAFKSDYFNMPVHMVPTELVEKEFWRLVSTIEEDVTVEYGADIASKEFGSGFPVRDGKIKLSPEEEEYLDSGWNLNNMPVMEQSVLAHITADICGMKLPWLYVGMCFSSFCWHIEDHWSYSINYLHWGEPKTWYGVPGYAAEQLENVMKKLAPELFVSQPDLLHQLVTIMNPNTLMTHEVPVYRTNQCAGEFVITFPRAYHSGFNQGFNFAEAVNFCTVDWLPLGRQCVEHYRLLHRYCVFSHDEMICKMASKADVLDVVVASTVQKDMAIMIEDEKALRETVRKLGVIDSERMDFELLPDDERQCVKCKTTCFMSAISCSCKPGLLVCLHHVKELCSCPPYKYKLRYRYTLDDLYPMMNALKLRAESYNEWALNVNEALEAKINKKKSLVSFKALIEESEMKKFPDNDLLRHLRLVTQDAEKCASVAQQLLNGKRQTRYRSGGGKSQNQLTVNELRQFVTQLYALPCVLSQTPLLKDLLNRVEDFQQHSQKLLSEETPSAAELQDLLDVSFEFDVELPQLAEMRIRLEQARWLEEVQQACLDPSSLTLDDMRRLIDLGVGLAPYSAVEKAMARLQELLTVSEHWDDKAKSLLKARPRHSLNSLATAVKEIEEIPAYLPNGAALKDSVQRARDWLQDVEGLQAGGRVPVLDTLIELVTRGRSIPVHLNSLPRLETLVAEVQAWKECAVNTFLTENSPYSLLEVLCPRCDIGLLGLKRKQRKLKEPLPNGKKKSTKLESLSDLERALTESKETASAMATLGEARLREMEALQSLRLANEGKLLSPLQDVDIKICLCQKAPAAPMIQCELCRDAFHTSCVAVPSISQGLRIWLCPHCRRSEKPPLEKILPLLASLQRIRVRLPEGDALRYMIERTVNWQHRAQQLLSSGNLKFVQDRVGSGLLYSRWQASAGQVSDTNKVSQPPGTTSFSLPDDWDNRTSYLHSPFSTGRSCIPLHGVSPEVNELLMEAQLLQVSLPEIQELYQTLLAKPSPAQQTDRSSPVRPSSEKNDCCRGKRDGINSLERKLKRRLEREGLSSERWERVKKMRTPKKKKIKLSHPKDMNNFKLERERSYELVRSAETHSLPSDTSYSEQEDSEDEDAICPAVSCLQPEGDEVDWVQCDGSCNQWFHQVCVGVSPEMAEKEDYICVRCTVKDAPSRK
UniProt Q9GZX7: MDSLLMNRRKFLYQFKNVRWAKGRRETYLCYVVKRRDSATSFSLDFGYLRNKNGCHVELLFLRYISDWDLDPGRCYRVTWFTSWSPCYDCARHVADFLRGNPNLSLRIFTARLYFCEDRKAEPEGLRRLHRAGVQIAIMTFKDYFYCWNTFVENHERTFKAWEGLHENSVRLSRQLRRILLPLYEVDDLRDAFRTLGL
UniProt Q99828: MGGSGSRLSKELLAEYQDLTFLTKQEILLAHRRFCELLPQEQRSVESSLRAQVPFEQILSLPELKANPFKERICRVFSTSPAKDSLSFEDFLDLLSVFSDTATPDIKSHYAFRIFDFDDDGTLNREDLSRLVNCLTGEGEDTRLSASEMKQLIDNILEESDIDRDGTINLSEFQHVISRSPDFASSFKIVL
UniProt P00784: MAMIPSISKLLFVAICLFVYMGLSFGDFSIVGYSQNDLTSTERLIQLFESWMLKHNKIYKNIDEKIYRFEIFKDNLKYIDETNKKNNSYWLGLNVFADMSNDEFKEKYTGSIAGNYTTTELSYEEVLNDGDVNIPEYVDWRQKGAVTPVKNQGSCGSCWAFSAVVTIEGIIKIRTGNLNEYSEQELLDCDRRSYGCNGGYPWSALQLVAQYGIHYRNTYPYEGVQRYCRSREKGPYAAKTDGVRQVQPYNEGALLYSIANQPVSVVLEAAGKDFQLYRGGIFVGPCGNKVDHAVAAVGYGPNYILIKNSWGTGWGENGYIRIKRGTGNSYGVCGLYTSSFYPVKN
UniProt C7C422: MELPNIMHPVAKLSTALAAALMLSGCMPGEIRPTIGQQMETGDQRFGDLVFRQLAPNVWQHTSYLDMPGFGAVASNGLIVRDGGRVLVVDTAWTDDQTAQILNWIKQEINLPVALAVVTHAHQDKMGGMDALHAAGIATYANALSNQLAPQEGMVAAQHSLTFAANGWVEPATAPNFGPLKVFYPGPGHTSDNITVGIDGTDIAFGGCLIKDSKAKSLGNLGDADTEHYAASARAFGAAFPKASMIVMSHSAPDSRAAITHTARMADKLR
UniProt P36969, whole entry, looked up: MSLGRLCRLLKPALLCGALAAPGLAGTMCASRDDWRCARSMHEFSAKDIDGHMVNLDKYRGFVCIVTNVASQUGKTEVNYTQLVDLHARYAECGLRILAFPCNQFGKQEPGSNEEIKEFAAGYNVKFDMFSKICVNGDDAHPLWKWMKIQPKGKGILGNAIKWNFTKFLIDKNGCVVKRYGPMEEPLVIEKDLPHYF

[2] = target: T1, Tyrosine-protein phosphatase non-receptor type substrate 1 (Homo sapiens) + Leukocyte surface antigen CD47 (Homo sapiens); assay: CD47-SIRPalpha protein protein interaction - HTRF assay qHTS validation (AID 1347058; active means well fitted curve in the direction sought with a large enough effect in the signal ratio, not every such curve was filed as active; the % refers to the signal ratio;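 further: recombinant soluble extracellular CD47 with His tag and biotinylated SIRPalpha domains; 0% is about no effect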); details: TR-FRET HTRF CD47-His / biotin-SIRPalpha binding, ratio 665/615; at 38.3 µM (top of the series)
Outline: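 TR-FRET read (Ch1/Ch2 ratio) of soluble extracellular CD47 and Avi-biotinylated SIRPalpha domains in PBS pH 7.4 with 0.05% IGEPAL; 7-point compound titration. Sequential 30 min room-temperature steps; non-biotinylated SIRPalpha as control inhibitor.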

[3] = target: T1, Tyrosine-protein phosphatase non-receptor type substrate 1 (Homo sapiens) + Leukocyte surface antigen CD47 (Homo sapiens); assay: CD47-SIRPalpha protein protein interaction - Alpha assay qHTS validation (AID 1347059); details: AlphaScreen CD47-His/biotin-SIRPalpha binding, LOPAC; at 38.3 µM (top of the series);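 further: bead proximity luminescence from CD47 binding SIRPalpha after compound preincubation with SIRPalpha; on the % scale 0 is the no-effect control and ±100 the full control effect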
Outline: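 Binding is measured by AlphaScreen proximity: Ni-NTA acceptor beads capture His-CD47, streptavidin donor beads capture biotin-SIRPalpha. Each of three additions (SIRPalpha with compound, CD47, beads) incubates 30 min at room temperature protected from light.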

[4] = target: Parathyroid hormone/parathyroid hormone-related peptide receptor (Homo sapiens) (UniProt Q03431); assay: qHTS for PTHR1 Agonists: Optimization Screen against the NCGC LOPAC library (AID 1347079); details: HEK293 GP2 PTHR1 GloSensor cAMP luminescence, 1 h; at 57.1 µM (top of the series);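 further: GloSensor cAMP luminescence in HEK-293 GP2 cells expressing human PTHR1 with IBMX; 0% is about no effect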
Outline: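 Compounds were tested across a qHTS titration. PTHR1-expressing GP2 cells report cAMP rises via GloSensor luminescence after 1 hr compound exposure at 37C with IBMX present.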

[5] = target: N-terminal Xaa-Pro-Lys N-methyltransferase 1 (Homo sapiens) (UniProt Q9BV86); assay: qHTS Assay for Inhibitors of N-terminal methyltransferase 1 (NTMT1): LOPAC validation of the NTMT1 SAHH-coupled ThioGlo3 Assay (AID 1347143); details: recombinant NTMT1, SAHH-coupled ThioGlo3 fluorescence; at 114 µM (top of the series);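 further: SAH from peptide methylation measured as thiol fluorescence via SAHH coupling and ThioGlo3; on the % scale 0 is the no-effect control and ±100 the full control effect; nearly all actives have a fitted effect of over 70% in size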
Outline: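 Inhibition of NTMT1 methylation of peptide SPKRIA is followed by converting SAH with SAHH and labelling the released thiol with ThioGlo3. Plates are read at 340/450nm before and 30 min after reagent addition, both at room temperature.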

[6] = target: Lysine-specific demethylase 5B (Homo sapiens) (UniProt Q9UGL1); assay: Optimization screen for KDM5B Histone Demethylases FDH coupled qHTS against the LOPAC library (AID 1347166); details: KDM5B demethylation, FDH-coupled NADH fluorescence (FDH is formaldehyde dehydrogenase); at 57.5 µM (top of the series); further: 0% is about no effect
Outline: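 KDM5BDeltaAP (200nM final) preincubated 10 min with compound, then 12.5uM H3K4Me3, 25uM a-ketoglutarate, ascorbate, Fe(II), NAD+ and FDH added; 50mM HEPES pH 7.5, 0.01% Tween-20. NADH fluorescence (340/450 nm) change over 30 min, room temperature.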

[7] = qHTS to identify inhibitors of the type 1 interferon - major histocompatibility complex class I in skeletal muscle: primary screen against the NCATS LOPAC collection (AID 1347405); details: iHSKM muscle cells, IFN-b-induced MHC-I HiBiT luminescence, 24 h; at 45.9 µM (top of the series);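 further: lytic HiBiT luminescence reporting HLA-B protein level; on the % scale 0 is the no-effect control and ±100 the full control effect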
Outline: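 Cells: C25cl48 human myoblasts, HiBiT-tagged HLA-B*08:01, stimulated with IFN-beta 4.0 ng/ml. Compounds are titrated 1:4.3 over 7 points from 46 uM final and incubated 24 hrs; endogenous MHC class I is quantified by HiBiT lytic luminescence.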

[8] = qHTS for inhibitors of adenylyl cyclases using a fission yeast platform: a pilot screen against the NCATS LOPAC library (AID 1347410);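 further: plate controls were DMSO vehicle for no effect and DPI positive control for full effect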; details: S. pombe CHP2027, fbp1-GFP fluorescence, 18 h, yeast expressing mammalian AC9 and human GNAS; at 57.5 µM (top of the series)
Outline: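 GFP from fbp1-GFP reporter, read by Acumen laser cytometry, indicates AC inhibition in fission yeast expressing AC9, GNAS and PDE4D2. Cells grown 18 h in the dark at 30C with compounds, final up to 57 uM.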

[9] = Validation qHTS assay for inhibitors of Activation Induced Cytidine Deaminase (AID): UDG Counterscreen signal (AID 1347427); details: biochemical UDG counterscreen, fluorescence signal; at 115 µM (top of the series); further: 0% is about no effect
Outline: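 Counterscreen read of UDG activity (2 U/mL, 4/3x) in the FRET deamination format with AID (1 uM, 4/3x), DJC20/DJC23 substrates (250 nM, 4x), 4 h at room temperature. NaOH stop, fluorescence at 560 ex/665 em.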

[10] = target: Single-stranded DNA cytosine deaminase (Homo sapiens) (UniProt Q9GZX7); assay: Validation qHTS assay for inhibitors of Activation Induced Cytidine Deaminase (AID): AID signal (AID 1347429); details: Recombinant AID, FRET ssDNA deamination with UDG, fluorescence; at 115 µM (top of the series); further: on the % scale 0 is the no-effect control and ±100 the full control effect
Outline: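 In this coupled qHTS, AID deaminates a FRET-labelled ssDNA substrate in the presence of UDG over 4 hr at room temperature. Compounds span up to 114 uM final.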

[11] = target: Calcium and integrin-binding protein 1 (Homo sapiens) (UniProt Q99828); assay: Validation qHTS for Identification of Calcium Integrin Binding protein 1 (CIB1) Competitor (AID 1508618); details: CIB1-GST / FITC-alphaIIb peptide fluorescence polarization; at 114 µM (top of the series); further: on the % scale 0 is the no-effect control and ±100 the full control effect
Outline: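 In this qHTS validation, the LOPAC set (up to 114 uM) was tested for blocking CIB1 binding to a fluorescein-tagged alphaIIb peptide, with FP detection at 480/540 nm.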

[12] = Counterscreen qHTS for small molecule stabilizers of the endoplasmic reticulum resident proteome: GLuc-NoTag assay (AID 1508627); details: Gaussia luciferase NoTag secretion counterscreen, luminescence, thapsigargin 100 nM for final 4 h; at 76.4 µM (top of the series);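 further: SH-SY5Y cells given compound then 100 nM thapsigargin to empty ER calcium; 0% = thapsigargin alone and -100% = DMSO vehicle control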
Outline: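 Luminescence of Gaussia luciferase secreted into the medium (coelenterazine, 0.07x final, unlysed cells) was the read-out. Human SH-SY5Y neuroblastoma cells constitutively secreting untagged GLuc received compound for 19 h, then 100 nM thapsigargin for 4 h.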

Papain (Carica papaya) = Papain (Carica papaya) (UniProt P00784); assay: Primary qHTS assay for inhibitors of the protease papain (AID 1645873); details: papain Z-FR-AMC cleavage, AMC fluorescence; at 49.8 µM (top of the series)
[13] = target: Metallo-beta-lactamase type 2 (Klebsiella pneumoniae) (UniProt C7C422); assay: qHTS to identify inhibitors of the New Delhi Metallo-beta-lactamase (NDM): assay validation screen against the NCATS LOPAC Collection (AID 1794843); details: NDM-1 enzyme, nitrocefin hydrolysis, absorbance 485 nm; at 38.4 µM (top of the series)
Outline: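 Nitrocefin hydrolysis (50 uM substrate stock) by NDM-1, 2 nM final, was followed by 485 nm absorbance after compound preincubation; buffer was 50 mM HEPES pH 7.0, 1 uM ZnSO4, 0.01% Tween20.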

[14] = target: Phospholipid hydroperoxide glutathione peroxidase GPX4 (Homo sapiens) (UniProt P36969); assay: Primary qHTS Assay for Inhibitors of Recombinant Selenoprotein Glutathione Peroxidase 4 (GPX4) (AID 1845192); details: recombinant GPX4, GR-coupled NADPH fluorescence, 15 min; activity change, negative = inhibition: at 50 µM (top of the series); further: on the % scale 0 is the no-effect control and ±100 the full control effect; nearly all actives have a fitted effect of over 65% in size
Outline: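 NADPH consumption, followed by fluorescence at 340/450 nm between 0 and 15 min, reports GPX4 activity via coupled glutathione reductase (100 nM). Enzyme 200 nM was pre-exposed to compound 30 min; 0.5 mM cumene hydroperoxide and 1 mM GSH served as substrates.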

CN(C(=O)Cc1ccc(Cl)c(Cl)c1)[C@@H]1CC[C@]2(CCCO2)C[C@H]1N1CCCC1
inactive: activity change, negative = inhibition [1] -0.0739% | activity change, negative = inhibition [2] 2.23% | activity change, negative = inhibition [3] 0.911% | activation [4] -29% | activity change, negative = inhibition [5] -21% | activity, negative = inhibition [6] -7.54% | activity change, negative = inhibition [7] -4.79% | activity, positive = inhibition (GFP gain) [8] -0.438% | activity, negative = inhibition [9] 10.7% | activity change, negative = inhibition [10] 19.7% | activity change, negative = inhibition [11] 10.2% | activity change, negative = inhibition [12] -24.8% | activity change, negative = inhibition (Papain (Carica papaya)) 1.35% | activity change, negative = inhibition [13] -14.7% | activity change, negative = inhibition [14] -13%

From PubChem BioAssay (NCATS)
